{
  "sequences": {"note": "Sequences of proteins named here, by UniProt entry; tags and fusion partners are left off.", "UniProt P19643, whole entry": "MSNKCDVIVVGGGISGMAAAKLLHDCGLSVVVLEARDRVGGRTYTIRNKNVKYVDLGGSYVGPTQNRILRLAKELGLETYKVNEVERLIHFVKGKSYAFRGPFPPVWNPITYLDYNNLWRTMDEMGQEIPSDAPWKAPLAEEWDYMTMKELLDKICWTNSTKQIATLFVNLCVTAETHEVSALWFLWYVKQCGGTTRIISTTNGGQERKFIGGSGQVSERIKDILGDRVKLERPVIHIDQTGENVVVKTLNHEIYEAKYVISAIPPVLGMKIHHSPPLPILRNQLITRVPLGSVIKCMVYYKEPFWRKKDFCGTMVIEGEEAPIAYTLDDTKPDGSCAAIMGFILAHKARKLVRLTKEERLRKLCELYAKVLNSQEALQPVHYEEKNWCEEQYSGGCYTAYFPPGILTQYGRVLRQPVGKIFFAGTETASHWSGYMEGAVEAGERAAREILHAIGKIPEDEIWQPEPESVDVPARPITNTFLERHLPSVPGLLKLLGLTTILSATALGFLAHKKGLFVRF"},
  "source": "patent EP0951284B1",
  "about": "“[…] DERIVATIVES” (priority 1996, dated 1998)",
  "target": "MAO-B (Rattus norvegicus, UniProt P19643)",
  "assay": "Inhibition of MAO activity in vitro, rat brain homogenate, PEA substrate",
  "conditions": "read-out: MAO-B Inhibition In vitro IC50, PEA 50µM, tested form: HCl",
  "note": "pIC50: −log10 of the molar value.",
  "data": [
    {"smiles": "CCCN(C)C(=O)Oc1cccc(CCN)c1", "values": [
      {"measurement": "pIC50", "value": "< 3.00"}
    ]}
  ]
}
